{"source": "ChEMBL document CHEMBL4049404", "about": "“Discovery of (R)-1-(3-(4-Amino-3-(3-chloro-4-(pyridin-2-ylmethoxy)phenyl)-1H-pyrazolo[3,4-d]pyrimidin-1-yl)piperidin-1-yl)prop-2-en-1-one (CHMFL-EGFR-202) as a Novel Irreversible EGFR Mutant Kinase Inhibitor with a Distinct Binding Mode” (J Med Chem, 2017)", "key": {"[1]": {"system": "Epidermal growth factor receptor (Homo sapiens), P00533 [G719C]", "experiment": "Binding affinity to human EGFR G719C mutant expressed in bacterial system assessed as control score at 1 uM by KINOMEScan assay"}, "[2]": {"system": "Epidermal growth factor receptor (Homo sapiens), P00533 [L861Q]", "experiment": "Binding affinity to human EGFR L861Q mutant expressed in bacterial system assessed as control score at 1 uM by KINOMEScan assay"}, "[3]": {"system": "Epidermal growth factor receptor (Homo sapiens), P00533 [UNDEFINED MUTATION]", "experiment": "Binding affinity to human EGFR E746-A750 deletion mutant expressed in bacterial system assessed as control score at 1 uM by KINOMEScan assay"}, "[4]": {"system": "Epidermal growth factor receptor (Homo sapiens), P00533 [UNDEFINED MUTATION]", "experiment": "Binding affinity to human EGFR L747-E749del/A750P mutant expressed in bacterial system assessed as control score at 1 uM by KINOMEScan assay"}, "[5]": {"system": "Epidermal growth factor receptor (Homo sapiens), P00533 [UNDEFINED MUTATION]", "experiment": "Binding affinity to human EGFR L747-S752del/P753S mutant expressed in bacterial system assessed as control score at 1 uM by KINOMEScan assay"}, "[6]": {"system": "Epidermal growth factor receptor (Homo sapiens), P00533 [UNDEFINED MUTATION]", "experiment": "Binding affinity to human EGFR L747-T751del/Sins mutant expressed in bacterial system assessed as control score at 1 uM by KINOMEScan assay relative to control"}, "[7]": {"system": "Epidermal growth factor receptor (Homo sapiens), P00533 [T790M]", "experiment": "Binding affinity to human EGFR T790M mutant expressed in mammalian system assessed as control score at 1 uM by KINOMEScan assay"}, "[8]": {"system": "Epidermal growth factor receptor (Homo sapiens), P00533 [L858R,T790M]", "experiment": "Binding affinity to human EGFR L858R/T790M mutant expressed in mammalian system assessed as control score at 1 uM by KINOMEScan assay"}, "[9]": {"system": "Epidermal growth factor receptor (Homo sapiens), P00533 [L858R]", "experiment": "Binding affinity to human EGFR L858R mutant expressed in bacterial system assessed as control score at 1 uM by KINOMEScan assay"}, "[10]": {"system": "Epidermal growth factor receptor (Homo sapiens), P00533 [UNDEFINED MUTATION]", "experiment": "Binding affinity to human EGFR S752-I759 deletion mutant expressed in bacterial system assessed as control score at 1 uM by KINOMEScan assay"}, "[11]": {"system": "Epidermal growth factor receptor (Homo sapiens), P00533 [G719S]", "experiment": "Binding affinity to human EGFR G719S mutant expressed in bacterial system assessed as control score at 1 uM by KINOMEScan assay"}}, "data": [{"compound": "C=CC(=O)N1CCC[C@@H](n2nc(-c3ccc(OCc4ccccn4)c(Cl)c3)c3c(N)ncnc32)C1", "values": [{"measurement": "Activity", "setting": "[1]", "value": 0.35, "unit": "%"}, {"measurement": "Activity", "setting": "[2]", "value": 0.15, "unit": "%"}, {"measurement": "Activity", "setting": "[3]", "value": 10, "unit": "%"}, {"measurement": "Activity", "setting": "[4]", "value": 5.5, "unit": "%"}, {"measurement": "Activity", "setting": "[5]", "value": 8.5, "unit": "%"}, {"measurement": "Activity", "setting": "[6]", "value": 5.5, "unit": "%"}, {"measurement": "Activity", "setting": "[7]", "value": 0.15, "unit": "%"}, {"measurement": "Activity", "setting": "[8]", "value": 1.4, "unit": "%"}, {"measurement": "Activity", "setting": "[9]", "value": 0.7, "unit": "%"}, {"measurement": "Activity", "setting": "[10]", "value": 2.2, "unit": "%"}, {"measurement": "Activity", "setting": "[11]", "value": 1.6, "unit": "%"}]}]}
